Measured values: PMC13266999, “Designing Antibiotics with Inherent Resistance to Efflux as a Strategy to Revive Discovery against Multidrug-Resistant Pathogens” (Journal of Medicinal Chemistry, 2026)

Test: Pharmacokinetics
Details: male, ICR (CD-1), mouse, plasma, po, 20 mg/kg

SMILES: C[C@H]1COc2c(N3CCN(C)CC3)c(F)cc3c(=O)c(C(=O)O)cn1c23 [Levofloxacin, (S)-9-Fluoro-3-methyl-10-(4-methylpiperazin-1-yl)-7-oxo-2,3-dihydro-7H-[1,4]oxazino[2,3,4-ij]quinoline-6-carboxylic acid, reference compound]
- bioavailability: 40.7%
